What was measured:
[1] = molecular target: HCV replication complexes isolated from a membrane fraction (Hepatitis C virus genotype 1b, UniProt Q9WMX2); details: inhibitor 100, 20 and 4 μM, 30° C., 2 hours
[2] = molecular target: T1, HCV replicase complex (membrane fraction of Huh-7 cells expressing HCV replicon) (Hepatitis C virus genotype 1b, UniProt Q9WMX2); details: test compound 10 μM
[3] = molecular target: T1, HCV replicase complex (membrane fraction of Huh-7 cells expressing HCV replicon); details: test compound 10 μM; remark: listed apart in the source

The chains behind the UniProt entries cited, without tags or fusion partners. Residues count along the entry.
UniProt Q9WMX2, 2420-3010: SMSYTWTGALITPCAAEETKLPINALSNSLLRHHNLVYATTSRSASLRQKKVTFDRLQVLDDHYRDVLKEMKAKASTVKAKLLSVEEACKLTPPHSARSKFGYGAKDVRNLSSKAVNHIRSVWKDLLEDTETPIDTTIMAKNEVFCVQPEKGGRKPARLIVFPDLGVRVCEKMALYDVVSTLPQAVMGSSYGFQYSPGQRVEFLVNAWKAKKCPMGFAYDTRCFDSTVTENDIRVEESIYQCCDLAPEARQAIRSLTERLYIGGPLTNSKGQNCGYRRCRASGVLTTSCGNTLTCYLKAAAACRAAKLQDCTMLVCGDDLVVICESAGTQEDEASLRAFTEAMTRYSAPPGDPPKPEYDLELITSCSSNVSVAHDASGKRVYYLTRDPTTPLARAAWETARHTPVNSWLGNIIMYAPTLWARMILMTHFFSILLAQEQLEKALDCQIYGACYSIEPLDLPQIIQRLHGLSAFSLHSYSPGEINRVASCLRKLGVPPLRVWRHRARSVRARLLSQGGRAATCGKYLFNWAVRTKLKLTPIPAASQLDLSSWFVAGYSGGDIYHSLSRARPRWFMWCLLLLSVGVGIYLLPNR

CC(C)CCn1c(=O)c(C2=NS(=O)(=O)c3ccccc3N2)c(O)c2ccccc21 [Test compound]
Double-stranded RNA band (elongation of previously initiated RNAs) in autoradiogram [1]: remains
Single-stranded RNA band (newly initiated RNAs) in autoradiogram [1]: disappears
Copies as % of samples with no test compound (no RNAse protection assay) [2]: 66%
Reduction in total viral RNA synthesis with no RNAse protection [2]: less than half reduction
Copy number after PCR with no RNAse protection assay ([2]; control without compound 46942): 31156
Copies as % of samples with no test compound (with RNAse protection assay) [3]: 12%
Reduction in the amount of newly initiated viral RNA synthesis after RNAse protection [3]: ~10 fold
Copy number after PCR with RNAse protection assay ([3]; control without compound 137494): 16970
